# Reported water solubility values for industrial, environmental and drug-like chemicals

Source: data files of OPERA 2.9 (Mansouri et al.), github.com/kmansouri/OPERA.

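The OPERA project collected these measurements from public sources as training and test data for property models. The files give a single number for a compound and property, which may rest on several reports. Method, purity and exact conditions of the single measurements are not given. A value may pool stereoisomers or salt forms, and the file does not say which form was measured. Unmarked limits or estimates from the upstream databases cannot be ruled out.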

Water solubility is log10 of mol/L, nominally at 25 °C; higher is more soluble.
Cells with "n/a" have no entry in this list.

compound,name,log solubility (log10 mol/L)
CCCCCN(C)CCC(O)(P(=O)(O)O)P(=O)(O)O,Ibandronic acid,-1.377
O=C(O)CCC1(CCC(=O)O)CCCC(CCC(=O)O)(CCC(=O)O)C1=O,"2-Oxocyclohexane-1,1,3,3-tetrapropionic acid",-2.11
O=C(Nc1ccc(F)cc1)c1cccc(Oc2cccc(C(F)(F)F)c2)n1,Picolinafen,-6.9
O=P1(Cc2ccccc2)OCC2(CO1)COP(=O)(Cc1ccccc1)OC2 (stereo not given),n/a,-4.121
COc1ccc(C(=O)Nc2ccccc2)cc1N=Nc1c(O)c(C(=O)Nc2cc(Cl)ccc2OC)cc2ccccc12,n/a,-8.184
Cc1ccc(-c2ccc(B(O)O)c(F)c2)cc1,"(4'-Methyl-3-fluoro[1,1'-biphenyl]-4-yl)-boronic acid",-4.771
Cc1ccc(N)c(S(=O)(=O)O)c1,2-Amino-5-methylbenzenesulfonic acid,-1.131
CCc1cccc2c(CCO)c[nH]c12,7-Ethyltryptophol,-1.915
O=c1[nH]sc2ccccc12,"1,2-Benzisothiazolin-3-one",-5.48
CC1=C(C(=O)Nc2ccccc2)S(=O)CCO1 (stereo not given),Carboxin sulfoxide,-2.631
Nc1c(Cl)c(Cl)c(N)c2c1C(=O)c1ccccc1C2=O,n/a,-6.764
COc1ccccc1N=NC(C(C)=O)C(=O)Nc1ccc2[nH]c(=O)[nH]c2c1 (stereo not given),n/a,-7.631
C[Si](C)(C)O[Si](C)(CCCOCC(O)CO)O[Si](C)(C)C (stereo not given),n/a,-4.436
CC(C)CN(CC(C)C)C(=S)SSC(=S)N(CC(C)C)CC(C)C,n/a,-6.923
C=CC(C)(CCC=C(C)C)OC(=O)C(C)C (stereo not given),Linalyl isobutyrate,-4.811
Cn1cc(C(=O)Nc2cccc3c2C2CCC3C2=C(Cl)Cl)c(C(F)F)n1 (stereo not given),Benzovindiflupyr,-5.609
C=CC(=O)Oc1ccc(C(=O)Oc2ccc(C(=O)O[C@@H]3CO[C@H]4[C@@H]3OC[C@H]4OC(=O)c3ccc(OC(=O)c4ccc(OC(=O)C=C)cc4)c(OC)c3)cc2OC)cc1,n/a,-6.747
CCCCCCCCCCCCCCCCCCCCCCCCC,Pentacosane,-7.851
O=C([O-])c1ccc2c3ccc4c5c(ccc(c6ccc(C(=O)[O-])c1c26)c53)C(=O)NC4=O.[K+].[K+],n/a,-2.572
CC(=O)OCC(CCn1cnc2c(Cl)nc(N)nc21)COC(C)=O,n/a,-2.938
C=C(OCC)C1C(C)(C)CC(=O)CC1(C)C,"4-(1-Ethoxyethenyl)-3,3,5,5-tetramethylcyclohexanone",-3.643
Cc1cc(N(CCO)CCO)ccc1N=Nc1ccccc1,"2,2'-((3-Methyl-4-(phenylazo)phenyl)imino)bisethanol",-4.126
C[C@@H]1C[C@H]2C3C[C@H](F)C4=CC(=O)C=CC4(C)[C@@]3(F)[C@@H](O)CC2(C)[C@@]1(O)C(=O)COC(=O)C(C)(C)C (some centres not stated),Flumethasone pivalate,-4.665
O=C(CCCCC(=O)OCC1CCC2OC2C1)OCC1CCC2OC2C1 (stereo not given),"Bis[(3,4-epoxycyclohexyl)methyl] adipate",-5.263
C=C(C)C(=O)O[Si](C(C)C)(C(C)C)C(C)C,Tri(propan-2-yl)silyl 2-methylprop-2-enoate,-6.084
Nc1ccc(Cl)cc1S(=O)(=O)O,2-Amino-5-chlorobenzenesulphonic acid,-1.822
CC(C)c1ccc(CCC=O)cc1,"Benzenepropanal, 4-(1-methylethyl)-",-3.303
CCc1cc2c(cc1CC)CC(NC[C@H](O)c1ccc(O)c3[nH]c(=O)ccc13)C2,Indacaterol,-4.692
Nc1ccc(Br)cc1S(=O)(=O)O,2-Amino-5-bromobenzenesulphonic acid,-2.627
Nc1ncn([C@@H]2O[C@H](CO)[C@@H](O)[C@H]2O)c(=O)n1,5-Azacytidine,-1.305
CC1CN(C2CCCCCCCCCCC2)CC(C)O1 (stereo not given),Dodemorph,-3.45
O=C(Nc1ccc2c([O-])c(/N=N/c3ccc(-c4ccc(/N=N/c5c(S(=O)(=O)[O-])cc6cc(S(=O)(=O)[O-])cc(O)c6c5[O-])c([O-])c4)cc3[O-])c(S(=O)(=O)[O-])cc2c1)c1ccccc1.[Cu+2].[Cu+2].[Na+].[Na+].[Na+],n/a,-3.631
O=S1CS(=O)CS(=O)C1 (stereo not given),"1,3,5-Trithiane 1,3,5-trioxide",-2.143
CCOC(=O)c1nn(-c2ccc(OC)cc2)c2c1CCN(c1ccc([N+](=O)[O-])cc1)C2=O,n/a,-6.619
COc1ccc2[nH]c(=S)[nH]c2c1,5-Methoxy-2-mercaptobenzimidazole,-2.751
Clc1cc(Cl)cc(Oc2ccc(Cl)cc2Cl)c1,n/a,-7.14
CCO[Si](CCC(F)(F)C(F)(F)C(F)(F)C(F)(F)C(F)(F)C(F)(F)F)(OCC)OCC,Triethoxy((perfluorohexyl)ethyl)silane,-5.407
NC1=C(Cl)C(=O)c2ccccc2C1=O,"2-Amino-3-chloro-1,4-naphthoquinone",-4
O=C(O)CS(=O)(=O)CCS(=O)(=O)CC(=O)O,2-[2-(carboxymethylsulfonyl)ethylsulfonyl]acetic acid,-1.73
CCCCC[C@H](O)/C=C/[C@H]1[C@H](O)CC(=O)[C@@H]1CCCCCCC(=O)O,Alprostadil,-3.67
CCCCCCCCCCCCCCCCCCNC(=O)/C=C\C(=O)O,"2-Butenoic acid, 4-(octadecylamino)-4-oxo-, (2Z)-",-4.794
CC(=NO)C(F)(F)F,"1,1,1-Trifluoro-acetone oxime",-0.229
CC(C)S,Isopropyl mercaptan,-1.603
FC(F)=C(F)OC(F)(F)C(F)(F)C(F)(F)F,Perfluoropropyl trifluorovinyl ether,-5.17
Cc1ccc(N(C)C)cc1,"N,N,4-Trimethylaniline",-2.473
CCCCOc1ccc(-c2ccc(-c3ccc(CC)cc3)c(F)c2)c(F)c1F,n/a,-6.983
CCCCCCCCCC(O)C(O)C(=O)O (stereo not given),"2,3-Dihydroxydodecanoic acid",-3.521